In ChEMBL document CHEMBL4020724, “Selective HDAC inhibitors with potent oral activity against leukemia and colorectal cancer: Design, structure-activity relationship and anti-tumor activity study” (Eur J Med Chem, 2017):

Test system: HCT-116
Experiment: Antitumor activity against human HCT116 cells xenografted in BALB/c nude mouse assessed as relative tumor increment ratio at 100 mg/kg/day administered via oral gavage for 16 days measured every 3 days
Assay type: functional

O=C(CCCCCCC(=O)Nc1ccccc1)NO [VORINOSTAT] was tested, and the T/C was 73%.
